From ChEMBL document CHEMBL1151963 (J Med Chem, 2009)

Amino acid sequences for entries named in this document (tags omitted).
UniProt P42336, whole entry: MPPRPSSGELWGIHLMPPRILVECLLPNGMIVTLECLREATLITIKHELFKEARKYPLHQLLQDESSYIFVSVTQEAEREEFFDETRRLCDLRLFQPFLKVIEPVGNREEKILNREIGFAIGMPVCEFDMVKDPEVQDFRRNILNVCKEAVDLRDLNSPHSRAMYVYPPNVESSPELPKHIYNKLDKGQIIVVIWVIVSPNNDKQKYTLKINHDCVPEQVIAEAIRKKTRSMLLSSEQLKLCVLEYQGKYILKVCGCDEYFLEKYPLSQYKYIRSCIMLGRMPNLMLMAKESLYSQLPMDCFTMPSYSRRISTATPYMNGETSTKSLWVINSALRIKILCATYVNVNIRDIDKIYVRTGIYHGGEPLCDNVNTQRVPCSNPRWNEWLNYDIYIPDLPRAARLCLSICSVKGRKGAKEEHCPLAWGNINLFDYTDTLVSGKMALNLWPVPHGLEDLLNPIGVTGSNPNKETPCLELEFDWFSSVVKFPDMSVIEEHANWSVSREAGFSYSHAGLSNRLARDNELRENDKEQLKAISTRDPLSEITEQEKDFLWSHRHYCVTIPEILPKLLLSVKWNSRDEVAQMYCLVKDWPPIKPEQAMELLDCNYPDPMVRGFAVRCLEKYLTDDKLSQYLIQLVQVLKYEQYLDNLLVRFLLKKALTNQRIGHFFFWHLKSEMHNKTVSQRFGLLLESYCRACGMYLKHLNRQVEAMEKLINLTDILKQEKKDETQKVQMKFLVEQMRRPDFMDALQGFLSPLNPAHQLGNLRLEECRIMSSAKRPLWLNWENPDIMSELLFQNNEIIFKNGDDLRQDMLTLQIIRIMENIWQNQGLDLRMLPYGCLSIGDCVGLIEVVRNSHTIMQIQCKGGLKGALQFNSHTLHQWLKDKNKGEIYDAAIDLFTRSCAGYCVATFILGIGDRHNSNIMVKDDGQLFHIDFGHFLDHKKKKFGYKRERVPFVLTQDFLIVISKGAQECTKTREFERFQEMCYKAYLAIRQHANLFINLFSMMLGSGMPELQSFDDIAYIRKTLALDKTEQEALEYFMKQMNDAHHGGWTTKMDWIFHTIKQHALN

Target: Phosphatidylinositol 4,5-bisphosphate 3-kinase catalytic subunit alpha isoform (Homo sapiens, UniProt P42336)
Assay: Inhibition of PI3Kalpha expressed in Escherichia coli by microtiter plate-based fluorescence polarization assay

IC50: 681 nM
Compound: COC(=O)N1CCC(n2ncc3c(N4CCOCC4)nc(-c4ccc(NC(=O)OCCO)cc4)nc32)CC1
